Source: PubChem BioAssay AID2174 (The Scripps Research Institute Molecular Screening Center, 2009)
The list shows a part of the results, in another mix than the full data. Some structures show a salt or complex split into parts, the way the source records it. Activity calls are given as the source filed them.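 How the source made its calls: active means inhibition above the mean of all tested compounds plus 3 SD, set per campaign (cut at about 14% in these data); inactive means the rest.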

Sequences of proteins named here, by UniProt entry; tags and fusion partners are left off.
UniProt O75608, whole entry: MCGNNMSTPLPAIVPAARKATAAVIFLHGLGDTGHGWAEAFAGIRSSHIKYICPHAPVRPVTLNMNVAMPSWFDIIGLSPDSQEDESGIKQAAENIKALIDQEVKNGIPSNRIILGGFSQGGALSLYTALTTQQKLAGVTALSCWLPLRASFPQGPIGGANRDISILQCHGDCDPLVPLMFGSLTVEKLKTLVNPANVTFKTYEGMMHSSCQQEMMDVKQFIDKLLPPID

Target: Acyl-protein thioesterase 1 (Homo sapiens) (UniProt O75608)
Assay: inhibition of human lysophospholipase 1 – biochemical, fluorescence polarization, FP-Rh probe ABPP, counter-screen for PME1 inhibitor project, primary screen (AID 2174);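 further: inhibitors block serine hydrolase probe labeling of LYPLA1 so polarization falls; 0% = enzyme with DMSO and 100% = wells lacking LYPLA1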
Conditions: recombinant LYPLA1, FP-Rh probe fluorescence polarization; at 5.9 µM; hits give high values

Row | Compound | inhibition
1 | CP(=O)(Nc1ccc2c(c1)OCCO2)Oc1ccccc1 (stereo not drawn) | inactive: 0.15%
2 | Cc1ccccc1NP(C)(=O)Nc1ccccc1C | inactive: -2.2%
3 | CP(=O)(Nc1ccc(SC(F)(F)F)cc1)Oc1ccc(F)cc1 (stereo not drawn) | inactive: -0.67%
4 | CCOP(C)(=S)SCC(=O)NC(C)(CC)C(=O)O (stereo not drawn) | inactive: 3.49%
5 | O=[N+]([O-])c1cc([N+](=O)[O-])c(NCC2CCS(=O)(=O)C2)c([N+](=O)[O-])c1 (stereo not drawn) | inactive: -5.1%
6 | COc1ccc(OP(C)(=O)Nc2cccc(Br)c2)cc1 (stereo not drawn) | inactive: 4.55%
7 | COc1ccc(NP(C)(=O)Oc2ccccc2OC)cc1 (stereo not drawn) | inactive: -1.73%
8 | CN(C)CCOC(=O)C(O)(c1ccccc1)C1CCCCC1 (stereo not drawn) | inactive: -0.3%
9 | CCN(CC)CCCOC(=O)C(O)(c1ccccc1)C1CCCCC1 (stereo not drawn) | inactive: 0.52%
10 | CCCCCOc1ccc(NP(C)(=O)Oc2ccc(Cl)cc2Cl)cc1 (stereo not drawn) | inactive: 0.38%
11 | O=[N+]([O-])c1cc([N+](=O)[O-])c(OC2CCCCC2O)c([N+](=O)[O-])c1 (stereo not drawn) | inactive: 0.56%
12 | CP(=O)(Nc1ccccc1)Oc1ccc(F)cc1 (stereo not drawn) | inactive: 3.04%
13 | COc1ccc(OP(C)(=O)Nc2ccc(SC(F)(F)F)cc2)cc1 (stereo not drawn) | inactive: -3.41%
14 | CCOC(=O)c1ccc(NP(C)(=O)Oc2ccc(F)cc2)cc1 (stereo not drawn) | inactive: 0.79%
15 | O=C(OCCN1CCN(CCOCc2ccccc2)CC1)C(O)(c1ccccc1)c1ccccc1 | inactive: -0.37%
16 | O=C(OC1CN2CCC1CC2)c1ccc([N+](=O)[O-])cc1 (stereo not drawn) | inactive: 2.64%
17 | COc1ccc2c(c1O)-c1c(O)c(OC)cc3c1[C@H](C2)[N+](C)(C)CC3.O=[N+]([O-])c1cc([N+](=O)[O-])c([O-])c([N+](=O)[O-])c1[O-] | inactive: 1.2%
18 | CC(C)c1ccc(OP(C)(=O)Nc2ccc(SC(F)(F)F)cc2)cc1 (stereo not drawn) | inactive: -0.23%
19 | CP(=O)(Nc1ccccc1F)Oc1ccccc1 (stereo not drawn) | inactive: 3.9%
20 | Cc1c(NP(C)(=O)Oc2ccc(C(C)C)cc2)c(=O)n(-c2ccccc2)n1C (stereo not drawn) | inactive: -3.47%
21 | O=[N+]([O-])c1cc([N+](=O)[O-])c(Nc2ccccn2)c([N+](=O)[O-])c1 | inactive: 0.41%
22 | CCc1ccc(OP(C)(=O)O)cc1 | inactive: 2.85%

Row | Compound | inhibition
23 | COc1ccccc1OP(C)(=O)Nc1ccc(C)cc1C (stereo not drawn) | inactive: -0.36%
24 | CP(=O)(Nc1ccccn1)Oc1ccccc1 (stereo not drawn) | inactive: -1.91%
25 | COc1ccccc1OP(C)(=O)Nc1ccc(Br)cc1 (stereo not drawn) | inactive: 0.2%
26 | CN(C)CCOC(=O)C(O)(c1ccccc1)C1CCCC1 (stereo not drawn) | inactive: 1.26%
27 | COc1ccc(OP(C)(=O)Nc2ccccn2)cc1 (stereo not drawn) | inactive: -1.33%
28 | Cc1nc2ccc3ccccc3c2o1.O=[N+]([O-])c1cc([N+](=O)[O-])c(O)c([N+](=O)[O-])c1 | inactive: -0.17%
29 | CP(=O)(Nc1ccc(Cl)cc1Cl)Oc1ccccc1 (stereo not drawn) | inactive: -0.26%
30 | CP(=O)(OCCOc1ccccc1)OCCOc1ccccc1 | inactive: 1.76%
31 | Cc1cc(C)cc(OP(C)(=O)Nc2cccc(C(F)(F)F)c2)c1 (stereo not drawn) | inactive: -3.01%
32 | COc1ccc(OP(C)(=O)Nc2ccccc2Br)cc1 (stereo not drawn) | inactive: -0.65%
33 | COc1ccccc1OP(C)(=O)Nc1ccc(C)c(C)c1 (stereo not drawn) | inactive: 2.32%
34 | Nc1ccc2c(ccc3cccnc32)n1.O=[N+]([O-])c1cc([N+](=O)[O-])c(O)c([N+](=O)[O-])c1 | inactive: -0.77%
35 | CP(=O)(OC12CC3CC(CC(C3)C1)C2)OC12CC3CC(CC(C3)C1)C2 | inactive: 2.1%
36 | CCOC(=O)c1ccc(NP(C)(=O)Oc2ccc(Cl)cc2)cc1 (stereo not drawn) | inactive: 2.89%
37 | CP(=O)(Nc1ccc(Cl)cc1)Oc1ccc(F)cc1 (stereo not drawn) | inactive: -3.17%
38 | COc1ccccc1OP(C)(=O)Nc1ccccc1Br (stereo not drawn) | inactive: 0.62%
39 | CC(C)(C)c1ccc(OP(C)(=O)O)cc1 | inactive: -2.85%
40 | CN(C)C(=O)c1c([N+](=O)[O-])cc([N+](=O)[O-])cc1[N+](=O)[O-] | inactive: 1.62%
41 | COc1ccc(OP(C)(=O)Nc2ccc(Br)cc2)cc1 (stereo not drawn) | inactive: -0.87%
42 | CCN(CC)CC(O)COC(=O)C(O)(c1ccccc1)C1CCCCC1 (stereo not drawn) | inactive: 0.74%
43 | CCc1ccc(OP(C)(=O)Nc2cccnc2)cc1 (stereo not drawn) | inactive: -1.88%
44 | CP(=O)(Oc1ccccc1)N1CCOC1=O (stereo not drawn) | inactive: 1.67%

Row | Compound | inhibition
45 | O=C(OCCCN1CCCC1)C(O)(c1ccccc1)C1CCCCC1 (stereo not drawn) | inactive: 1%
46 | COc1ccccc1OP(C)(=O)Nc1c(C)n(C)n(-c2ccccc2)c1=O (stereo not drawn) | inactive: -0.69%
47 | CCOP(C)(=S)SCC(=O)NC(C)C(=O)O (stereo not drawn) | inactive: -3.2%
48 | O=[N+]([O-])c1cc([N+](=O)[O-])c(O)c([N+](=O)[O-])c1.c1ccc(Oc2ccncc2)cc1 | inactive: 4.23%
49 | CCOC(=O)c1ccc(NP(C)(=O)Oc2ccc(OC)cc2)cc1 (stereo not drawn) | inactive: -2.25%
50 | CP(=O)(Nc1ccccn1)Oc1ccc(Cl)cc1 (stereo not drawn) | inactive: 0.47%
51 | CP(=O)(Oc1ccccc1)OC(c1ccccc1)C(F)(F)F (stereo not drawn) | inactive: 0.5%
52 | CP(=O)(Nc1ccc(SC(F)(F)F)cc1)Oc1ccc(Cl)cc1 (stereo not drawn) | inactive: 1.03%
53 | Cc1cccc(C)c1OP(C)(=O)Nc1ccc(SC(F)(F)F)cc1 (stereo not drawn) | inactive: 0.54%
54 | Cc1cc(C)cc(OP(C)(=O)Nc2ccc(SC(F)(F)F)cc2)c1 (stereo not drawn) | inactive: -1.5%
55 | CP(=O)(NC(=O)Nc1ccccc1)Oc1ccccc1 (stereo not drawn) | inactive: 1.93%
56 | CCc1ccc(OP(C)(=O)N2CCN(c3ccc([N+](=O)[O-])cc3)CC2)cc1 (stereo not drawn) | inactive: 6.4%
57 | CP(=S)(Nn1cnnc1)Oc1ccccc1 (stereo not drawn) | inactive: 1.07%
58 | COc1ccccc1OP(C)(=O)Nc1ccccc1 (stereo not drawn) | inactive: 4.16%
59 | CP(=O)(Nc1ccccc1Br)Oc1ccccc1 (stereo not drawn) | inactive: 0.35%
60 | CCOC(=O)c1ccc(NP(C)(=O)Oc2ccccc2)cc1 (stereo not drawn) | inactive: -3.04%
61 | Cc1ccc(NP(C)(=O)Oc2ccccc2)c(C)c1 (stereo not drawn) | inactive: -1.37%
62 | COc1ccccc1OP(C)(=O)Nc1ccc(C)cc1 (stereo not drawn) | inactive: -1.27%
63 | COc1ccc(OP(C)(=O)Nc2cccc(F)c2)cc1 (stereo not drawn) | inactive: 1.51%
64 | COc1ccccc1OP(C)(=O)Nc1cc(Cl)ccc1C (stereo not drawn) | inactive: -0.37%
65 | Cc1cc(C)cc(OP(C)(N)=O)c1 (stereo not drawn) | inactive: -1.78%
66 | O=[N+]([O-])c1cc([N+](=O)[O-])c(Nc2cccnc2)c([N+](=O)[O-])c1 | inactive: 0.43%

Row | Compound | inhibition
67 | Cc1cccc(C)c1OP(C)(N)=O (stereo not drawn) | inactive: -1.08%
68 | CC(C)(C)c1ccc(OP(C)(=O)Nc2ccc(SC(F)(F)F)cc2)cc1 (stereo not drawn) | inactive: -1.69%
69 | O=[N+]([O-])c1ccc2c(c1)C=Nc1ccccc1O2 | inactive: 3.04%
70 | CCN(CC)CCCOC(=O)C(O)(c1ccccc1)c1ccccc1 | inactive: 2.77%
71 | Cc1cc(C)cc(OP(C)(=O)Nc2ccccn2)c1 (stereo not drawn) | inactive: 0.78%
72 | CP(=O)(Nc1cccc(Br)c1)Oc1ccccc1 (stereo not drawn) | inactive: 2.81%
73 | Cc1ccc(C)c(NP(C)(=O)Oc2ccccc2)c1 (stereo not drawn) | inactive: -0.94%
74 | COc1ccccc1OP(C)(=O)Nc1cccc(Br)c1 (stereo not drawn) | inactive: -0.81%
75 | Cc1cc(C)cc(OP(C)(=O)Nc2ccc(C)cc2C)c1 (stereo not drawn) | inactive: -2.25%
76 | CCOC(=O)c1ccc(NP(C)(=O)Oc2cc(C)cc(C)c2)cc1 (stereo not drawn) | inactive: 2.38%
77 | CC1=NCCc2c1[nH]c1ccccc21.O=[N+]([O-])c1cc([N+](=O)[O-])c(O)c([N+](=O)[O-])c1 | inactive: 0.02%
78 | O=C(O)c1cccc(Nc2c([N+](=O)[O-])cc([N+](=O)[O-])cc2[N+](=O)[O-])c1 | inactive: 0.67%
79 | CN1CCCCC1COC(=O)C1(O)c2ccccc2CCc2ccccc21 (stereo not drawn) | inactive: -1.63%
80 | COc1ccccc1OP(C)(=O)Nc1c(C)cccc1C (stereo not drawn) | inactive: -2.05%
81 | CCCOc1ccc(NP(C)(=O)Oc2ccc(Cl)cc2)cc1 (stereo not drawn) | inactive: -0.28%
82 | CP(=O)(Nc1ccc(SC(F)(F)F)cc1)Oc1ccccc1 (stereo not drawn) | inactive: -0.8%
83 | CCOC(=O)C(CC)C1=NC(C)(C)Cc2ccccc21.O=[N+]([O-])c1cc([N+](=O)[O-])c(O)c([N+](=O)[O-])c1 (stereo not drawn) | inactive: 0.75%
84 | CC1=C2N=C(C=C3N=C(C(C)=C4[N-][C@@](C)([C@@H]5N=C1[C@](C)(CCC(=O)NC[C@@H](C)OP(=O)([O-])O[C@H]1[C@@H](O)[C@@H](n6cnc7cc(C)c(C)cc76)O[C@@H]1CO)[C@H]5CC(N)=O)[C@@](C)(CC(N)=O)[C@@H]4CCC(N)=O)[C@@](C)(CC(N)=O)[C@@H]3CCC(N)=O)C(C)(C)[C@@H]2CCC(N)=O.[C-]#N.[Co+3] | inactive: -1.82%
85 | O=[N+]([O-])c1cc([N+](=O)[O-])c(Nc2nnnn2CCO)c([N+](=O)[O-])c1 | inactive: -2.88%
86 | O=[N+]([O-])c1cc([N+](=O)[O-])c(-c2cnn(-c3ccccc3)c2)c([N+](=O)[O-])c1 | inactive: 0.21%
87 | Cc1nc2ccc3ccccc3c2s1.O=[N+]([O-])c1cc([N+](=O)[O-])c(O)c([N+](=O)[O-])c1 | inactive: 1.06%
88 | O=[N+]([O-])c1cc([N+](=O)[O-])c(-n2nnc3ccccc32)c([N+](=O)[O-])c1 | inactive: 5.47%
